Data on 32 molecules can be found in PubChem BioAssay AID485358 (National Center for Advancing Translational Sciences (NCATS), 2010).

Chains of the proteins cited; added tags and fusions are not shown.
UniProt P14416, whole entry: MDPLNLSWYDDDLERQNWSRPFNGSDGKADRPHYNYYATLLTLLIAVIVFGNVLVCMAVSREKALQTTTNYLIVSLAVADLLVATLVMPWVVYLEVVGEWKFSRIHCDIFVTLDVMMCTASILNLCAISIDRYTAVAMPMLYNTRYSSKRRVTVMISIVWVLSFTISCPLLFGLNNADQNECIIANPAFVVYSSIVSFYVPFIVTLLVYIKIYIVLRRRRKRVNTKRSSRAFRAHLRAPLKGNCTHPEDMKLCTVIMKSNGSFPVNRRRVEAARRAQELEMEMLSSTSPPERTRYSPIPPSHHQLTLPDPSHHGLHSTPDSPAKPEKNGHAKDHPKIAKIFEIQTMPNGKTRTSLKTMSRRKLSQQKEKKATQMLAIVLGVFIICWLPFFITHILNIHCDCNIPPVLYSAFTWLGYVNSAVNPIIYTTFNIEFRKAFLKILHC

Structures are written as SMILES. “And” between values parts separate entries of the source, which are not always exact repeats. Identical values can stand only once. The list shows a part of the results, in another mix than the full data. Some of these compounds have results that are not shown, active ones among them. The source made the active and inactive calls.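 Rule for the calls: active = activation over 3 SD above normal in the single-dose calcium agonist read (cut at about 30% in these data); inactive = the rest.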

For this assay, the target named is D(2) dopamine receptor (Homo sapiens) (UniProt P14416). The experiment in a line: HTS Assay for Allosteric Agonists of the Human D2 Dopamine Receptor: Primary Screen for Agonists. Note: 0% is about no effect. The conditions noted are these: HEK293 T-REx D2 cells, calcium flux agonist mode; at 2 µM; active compounds read high. The source says:
NIH Chemical Genomics Center [NCGC] NIH Molecular Libraries Probe Centers Network [MLPCN] MLPCN Grant: NS064831-01 Assay Submitter (PI): David Sibley Dopamine receptors (DARs) are involved in the etiology and/or therapy of a number of neuropsychiatric and endocrine disorders. For instance, all receptor-based antiparkinsonian drugs work via stimulating the D2 DAR subtype whereas all FDA-approved antipsychotic agents are antagonists of this receptor. […] There are three different types of allosteric modulators that we are seeking, two of which will stimulate or augment receptor signaling, allosteric agonists and potentiators, while the third, allosteric antagonists, will attenuate receptor signaling. The present primary screening assay measures compound agonism by tracking calcium flux in a […], inducible Hek293 Trex D2 cell line.
Freshly passaged cells are plated in 1536 well black, clear bottom plates at a density of 4000 cells/well in 3 ul of complete media containing 1x tetracycline inducer. After an overnight incubation at […] in 5% CO2, cells are loaded with 2 ul of the no wash Calcium Assay Kit (ABD Bioquest) and incubated at room temperature for 30 to 90 minutes. Agonist read: A 10 cycle (1 second/cycle) baseline measurement is taken and then the FDSS online 1536 pintool delivers 23 nl of compound library (as well as dopamine controls) to the plate. The plate is measured for kinetically at 1 cycle/sec for 180 seconds and is considered to be the agonist portion of the assay (eg, compounds which activate a positive calcium response during this portion are flagged as potential agonists). Following the 180 second read, 1 ul of either an EC20 (positive modulation assay) or EC80 (negative modulation assay) is delivered by an onboard pipette head. Measurements are taken kinetically for an additional 180 seconds.
In general terms: Calcium flux is commonly read through the fluorescence of an indicator in the cells.
For the molecule `O=C(OC1CN2CCC1CC2)C(CO)(c1ccccc1)c1ccccc1` (configuration not stated), the activation is inactive: 0.916%.
As for `CC(C)COc1ccc(C(=O)NCC2(N(C)C)CCCCC2)cc1`, the figure is inactive: 1.41%; as for `COc1cc(C(=O)NCC2(N(C)C)CCCCC2)cc(OC)c1OC`, inactive: 1.76%.
As for `Cc1cccc(C(=O)NCC2(N(C)C)CCCCC2)c1`, the figure is inactive: 0.297%.
As for `COc1ccc(Br)c(C(=O)NCC2(N3CCCCC3)CCCCC2)c1`, the figure is inactive: -0.0055%; as for `CC(C)Oc1ccc(C(=O)NCC2(N(C)C)CCCCC2)cc1`, inactive: 0.784% and inactive: 0.0228%.
As to `CN(C)c1cccc(C(=O)NCC2(N(C)C)CCCCC2)c1`, the activation was inactive: -0.105%.
As for `CN(C)C1(CNC(=O)c2ccc(Br)cc2)CCCCC1`, the activation is inactive: 0.264%.
For the molecule `COc1cc(C(=O)NCC2(N(C)C)CCCCC2)c([N+](=O)[O-])cc1OC`, the activation was inactive: -1.25%.
As for `COc1cccc(C(=O)NCC2(N3CCCCC3)CCCCC2)c1`, the figure is inactive: 0.515%.
The result for `COc1ccc(Cl)cc1C(=O)NCC1(N(C)C)CCCCC1` reads inactive: 0.521%.
The result for `COc1ccc(C(=O)NCC2(N(C)C)CCCCC2)cc1Cl` reads inactive: 1.16%; that for `O=C(NCC1(N2CCCCC2)CCCCC1)c1cccc(Cl)c1`, inactive: 0.536%.
Regarding `Cc1ccccc1C(=O)NCC1(N2CCCCC2)CCCCC1`, the activation was inactive: 0.906%.
As for `CN(C)C1(CNC(=O)c2ccccc2[N+](=O)[O-])CCCCC1`, the figure is inactive: 0.838%.
Take `CN(C)c1ccc(C(=O)NCC2(N(C)C)CCCCC2)cc1`: the activation was inactive: -0.562%.
For `CN(C)C1CCCC1OC(=O)C(O)(c1ccccc1)c1ccccc1` (configuration not stated), the activation was inactive: -1.43%.
The result for `CCCCOc1ccccc1C(=O)NCC1(N(C)C)CCCCC1` reads inactive: 0.703%; that for `O=C(NCC1(N2CCCCC2)CCCCC1)c1cc(F)c(F)cc1Cl`, inactive: -0.36%; that for `COc1ccc(C(=O)NCC2(N(C)C)CCCCC2)cc1`, inactive: -0.651%.
As to `CCOc1cccc(C(=O)NCC2(N(C)C)CCCCC2)c1`, the activation was inactive: 0.622%.
Take `CCN1CCCC(OC(=O)C2(O)c3ccccc3C=Cc3ccccc32)C1` (configuration not stated): the activation is inactive: 1.6%.
The result for `Cc1cc(C(=O)NCC2(N3CCCCC3)CCCCC2)ccc1[N+](=O)[O-]` reads inactive: 1.38%; that for `O=C(NCC1(N2CCCCC2)CCCCC1)c1cccc(Br)c1`, inactive: 1.42%; that for `O=C(NCC1(N2CCCCC2)CCCCC1)c1cc([N+](=O)[O-])ccc1Cl`, inactive: 0.353%.
As for `CN1[C@@H]2CC[C@H]1CC(OC(=O)C(O)(c1ccccc1)c1ccccc1)C2` (some centres not stated), the figure is inactive: -0.321%; as for `CCN(CC)CC(C)C(C)OC(=O)C(O)(c1ccccc1)c1ccccc1` (configuration not stated), inactive: 1.83%; as for `CN(C)C1(CNC(=O)c2cccc(Cl)c2)CCCCC1`, inactive: 0.73%.
The result for `COc1cc(SC)ccc1C(=O)NCC1(N(C)C)CCCCC1` reads inactive: 0.196%; that for `CC(C)N1C(=O)CC2(CCN(CCOC(=O)C(O)(c3ccccc3)c3ccccc3)CC2)C1=O`, inactive: 0.323%.
Regarding `Cc1ccc(C(=O)NCC2(N3CCCCC3)CCCCC2)cc1`, the activation is inactive: -0.394%.
On to `CN(C)C1(CNC(=O)c2ccccc2F)CCCCC1`, for which the activation is inactive: 1.62%.
